For four molecules, Kd results are on record in patent US20140066410A1, “INHIBITORS OF BROMODOMAINS AS MODULATORS OF GENE EXPRESSION” (ICAHN SCHOOL OF MEDICINE AT MOUNT SINAI, priority 2011, published 2014).

In one assay the target is BRD4-1 (Homo sapiens, UniProt O60885). Kind of assay: Bromodomain binding affinity (tryptophan fluorescence binding assay). Particulars: read-out: Binding Affinity, Kd BRD4-1; Table 2.
The next assay has as its target BRD4-2 (Homo sapiens, UniProt O60885). Described as above. The conditions noted are these: read-out: Binding Affinity, Kd BRD4-2; Table 2.

With `Cc1cc(/N=N/c2ccc(S(=O)(=O)Nc3ccc(C(F)(F)F)cc3)cc2)cc(C)c1O`, at BRD4-1, the Kd (in general, a measure of binding affinity in units of concentration) turned out to be 3.5 µM.
On the same count and under the same terms, as for `CC(C)c1cc(/N=N/c2ccc(S(=O)(=O)Nc3ccccn3)cc2)cc(C(C)C)c1O`, the figure is 505 µM.
On to `O=S(=O)(Nc1ccccn1)c1ccc(/N=N/c2ccc(O)c3ccccc23)cc1`, for which the Kd at BRD4-2 amounted to 6.1 µM.
Take `COc1cc(/N=N/c2ccc(S(=O)(=O)Nc3ccccn3)cc2)ccc1O`: the Kd at BRD4-1 was found to be 4.8 µM; at BRD4-2, 10.2 µM.
